Measured values reported in PubChem BioAssay AID624202 (National Center for Advancing Translational Sciences (NCATS), 2012).
The list shows a part of the results, in another mix than the full data. Active and inactive are the calls of the source. Calls follow the shape of the dose curve; as a rule, active = well fitted activation curve with a large enough effect; inconclusive = small, poorly fitted or top-dose-only effect; inactive = no such curve, though single readings can be large or run the other way.

Experiment: qHTS Assay to Identify Small Molecule Activators of BRCA1 Expression; also: nearly all actives have a fitted effect of over 80% in size
Settings: MCF7-BRCA1-FFLuc reporter, luminescence, 48 h, scaled: vehicle 0%, 10 µM genistein 100%; at 46.1 µM (top of the series)

Which activation does the source give for CCC(=O)N(c1ccccc1)C1(COC)CCN(CCc2cccs2)CC1 here?
Its activation is inactive: 7.84%.

For CCC(=O)N(c1ccccc1)C1(COC)CCN(CCn2nnn(CC)c2=O)CC1, which activation is on record?
Its activation is inactive: 4.15%.
